This note sets out measurements from ChEMBL document CHEMBL4364246, “Synthesis and biological evaluation of 5-aminoethyl benzophenanthridone derivatives as DNA topoisomerase IB inhibitors” (Eur J Med Chem, 2019).

Structures are written as SMILES.

Experiment [1] relates to HCT-116. The experiment can be described thus: cells. The note with it: Homo sapiens, HCT-116, 72 h.
Experiment [2] relates to MCF7. Put plainly: cells. The note with it: Homo sapiens, MCF7, 72 h.
The test system of experiment [3] is A549. Put plainly: cells. The conditions noted are these: Homo sapiens, A549, 72 h.
In experiment [4] the test system is DU-145. Put plainly: cells. The conditions noted are these: Homo sapiens, DU-145, 72 h.
The test system of experiment [5] is NCI/ADR-RES. Put plainly: Growth inhibition of human MCF7/ADR cells incubated for 72 hrs by MTT assay. The format is functional. In general terms: Tetrazolium dyes change colour on reduction, which living cells bring about.

As a reminder, the GI50 is the concentration that inhibits growth by half. Regarding `COc1cc2c(=O)n(CCN(C)P3(=O)OCCO3)c3c4cc5c(cc4ccc3c2cc1OC)OCO5`, the GI50 in experiment [1] was 5.9 µM; in experiment [2] it was 1.8 µM; in experiment [3], 1.9 µM; in experiment [4], 3.6 µM.
For `CNCCn1c(=O)c2cc(OC)c(OC)cc2c2ccc3cc4c(cc3c21)OCO4`, the GI50 in experiment [5] amounted to 1.37 µM.
